# Laboratory results taken from ChEMBL document CHEMBL2216751, “PI3Kδ and PI3Kγ as targets for autoimmune and inflammatory diseases” (J Med Chem, 2012).
# Chains of the proteins cited; added tags and fusions are not shown. Lines headed by an entry give the natural chain unless they say otherwise; changes in a name come on top.
# UniProt P42338: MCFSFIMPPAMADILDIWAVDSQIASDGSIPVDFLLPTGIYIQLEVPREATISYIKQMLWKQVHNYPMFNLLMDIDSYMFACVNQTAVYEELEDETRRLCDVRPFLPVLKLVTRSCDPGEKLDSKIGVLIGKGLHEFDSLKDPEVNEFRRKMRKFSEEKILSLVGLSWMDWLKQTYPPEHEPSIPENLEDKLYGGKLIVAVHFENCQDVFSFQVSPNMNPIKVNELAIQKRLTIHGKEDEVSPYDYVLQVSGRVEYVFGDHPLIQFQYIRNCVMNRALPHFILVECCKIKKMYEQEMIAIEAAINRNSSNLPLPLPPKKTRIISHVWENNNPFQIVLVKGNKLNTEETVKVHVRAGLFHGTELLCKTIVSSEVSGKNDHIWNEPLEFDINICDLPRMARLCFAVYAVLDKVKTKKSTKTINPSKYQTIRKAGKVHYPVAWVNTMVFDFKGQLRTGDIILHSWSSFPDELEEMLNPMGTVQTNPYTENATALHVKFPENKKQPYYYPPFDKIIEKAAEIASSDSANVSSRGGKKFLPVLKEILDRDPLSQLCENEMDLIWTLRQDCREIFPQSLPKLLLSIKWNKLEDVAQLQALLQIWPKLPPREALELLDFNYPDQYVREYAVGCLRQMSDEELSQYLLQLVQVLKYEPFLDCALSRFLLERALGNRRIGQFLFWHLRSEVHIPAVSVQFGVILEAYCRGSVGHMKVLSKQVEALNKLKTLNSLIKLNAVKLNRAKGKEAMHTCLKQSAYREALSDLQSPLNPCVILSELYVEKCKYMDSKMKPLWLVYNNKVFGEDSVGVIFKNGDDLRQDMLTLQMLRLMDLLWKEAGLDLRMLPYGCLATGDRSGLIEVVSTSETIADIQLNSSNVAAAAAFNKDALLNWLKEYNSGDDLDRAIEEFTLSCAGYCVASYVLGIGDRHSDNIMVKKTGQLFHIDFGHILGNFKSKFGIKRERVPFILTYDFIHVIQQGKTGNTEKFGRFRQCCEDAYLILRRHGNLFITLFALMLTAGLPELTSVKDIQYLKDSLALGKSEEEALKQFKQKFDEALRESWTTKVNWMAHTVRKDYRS
# Columns and labels:
# [1] = target: T1, Phosphatidylinositol 4,5-bisphosphate 3-kinase catalytic subunit delta isoform (Homo sapiens, UniProt O00329)
# T1 sequence (O00329 whole entry): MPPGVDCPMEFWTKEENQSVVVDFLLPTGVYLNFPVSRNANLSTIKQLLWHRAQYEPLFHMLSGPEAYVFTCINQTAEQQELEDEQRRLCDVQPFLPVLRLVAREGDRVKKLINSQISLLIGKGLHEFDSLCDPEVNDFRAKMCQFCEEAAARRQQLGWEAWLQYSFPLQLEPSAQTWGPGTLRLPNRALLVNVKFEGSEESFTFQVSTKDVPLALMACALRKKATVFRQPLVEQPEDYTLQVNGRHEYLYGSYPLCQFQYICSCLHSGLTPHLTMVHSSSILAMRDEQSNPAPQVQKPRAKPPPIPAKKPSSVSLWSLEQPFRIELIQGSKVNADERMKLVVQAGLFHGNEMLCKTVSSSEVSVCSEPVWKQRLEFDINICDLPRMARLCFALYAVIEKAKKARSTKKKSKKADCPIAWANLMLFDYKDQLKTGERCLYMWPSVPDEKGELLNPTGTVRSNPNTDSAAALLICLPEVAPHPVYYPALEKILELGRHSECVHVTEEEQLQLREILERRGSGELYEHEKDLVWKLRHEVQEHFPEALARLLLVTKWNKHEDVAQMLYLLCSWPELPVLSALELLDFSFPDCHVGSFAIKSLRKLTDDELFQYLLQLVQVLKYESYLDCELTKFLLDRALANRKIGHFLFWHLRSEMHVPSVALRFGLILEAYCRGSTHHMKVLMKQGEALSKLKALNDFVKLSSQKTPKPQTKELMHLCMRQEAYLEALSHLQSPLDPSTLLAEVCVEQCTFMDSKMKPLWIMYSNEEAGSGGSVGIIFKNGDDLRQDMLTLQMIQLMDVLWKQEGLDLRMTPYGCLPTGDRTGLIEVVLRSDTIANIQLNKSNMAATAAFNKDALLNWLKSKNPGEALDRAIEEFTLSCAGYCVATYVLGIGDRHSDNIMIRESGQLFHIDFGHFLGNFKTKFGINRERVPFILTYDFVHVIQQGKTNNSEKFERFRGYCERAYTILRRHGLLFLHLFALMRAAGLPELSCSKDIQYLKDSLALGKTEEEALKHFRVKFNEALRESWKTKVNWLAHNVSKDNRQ
# [2] = target: Phosphatidylinositol 4,5-bisphosphate 3-kinase catalytic subunit beta isoform (Homo sapiens, UniProt P42338); assay: Inhibition of PI3Kbeta using phosphatidylinositol as substrate by gamma33P[ATP] incorporation assay
Structure (SMILES),IC50 [1],IC50 [2]
Cc1ccccc1-n1c(Cn2nc(-c3cc(O)cc(F)c3)c3c(N)ncnc32)cc2cccc(C)c2c1=O,0.3 nM,
CC(=O)Nc1nc2ccc(-c3nn(Cc4cc5cccc(C)c5c(=O)n4-c4ccccc4C)c4ncnc(N)c34)cc2s1,< 100 nM,
O=c1cc(N2CCOCC2)oc2c(-c3ccccc3)cccc12 [LY-294002],,310 nM
